About 4,200 (1.3%) of roughly 330,000 compounds were called active. Listed are the inconclusive results; actives and inactives stand elsewhere. Calls come from the whole dose curve; as a rule, active = well fitted activation curve with a large enough effect; inconclusive = small, poorly fitted or top-dose-only effect; inactive = no such curve, though single readings can be large or run the other way.
Test: qHTS screen for small molecules that induce genotoxicity in human embryonic kidney (HEK293T) cells expressing luciferase-tagged ELG1; note: nearly all actives have a fitted effect of over 60% in size
Conditions: HEK293T ELG1-luciferase reporter, luminescence, 16 h
From the text: NIH Molecular Libraries Probe Production Network [MLPCN] NIH Chemical Genomics Center [NCGC] MLPCN Grant: 1 R03 MH092164-01 Assay Provider: Kyungjae Myung, NHGRI, NIH Keywords: MLPCN, qHTS, NCGC, genotoxicity, cancer Assay Overview: Cancer cells divide rapidly compared to normal cells in the body. During cell division, cancer cells need to duplicate their genome by DNA replication. The failure of genome duplication leads to cancer cells' death. Therefore, inhibitors of DNA replication could specifically kill cancer cells. Based on this concept, many chemotherapeutic agents were developed and have been used to treat cancer patients. However, there are a limited number of agents available in the clinical setting, and some of those that do exist have low efficacy and severe side effects. Therefore, if we can find the compounds that effectively block DNA replication either by directly damaging DNA or by inhibiting other cellular mechanisms, the options for cancer treatment will be broadened. With this in mind, we developed a quantitative high-throughput ELG1-luciferase reporter gene assay. Since the level of human ELG1 protein is enhanced in response to genetic stresses, increases in luciferase activity can be used to identify compounds that cause genetic stress.
Assay Protocol Summary: For genotoxicity screening, 2,000 cells in 5 uL/well were dispensed into white, solid-bottom 1536-well plates using a solenoid-based dispenser. Following transfer of 23 nL compound or DMSO vehicle by a pin tool, the plates were incubated 16 hr at 37 °C and 5% CO2. 5 ul ONE-Glo (Promega) was then added to each plate and following a 30 min incubation at room temperature, luciferase activity was quantified on a ViewLux CCD-based plate reader.
Potency is the fitted concentration of half-maximal effect.

With CCOC(=O)c1ccc(NC(=O)C(C)(CCl)SC)cc1 (stereo not drawn) as the compound, how does the Potency read?
The Potency was inconclusive: 14.6 µM.

Which Potency does the source give for CCc1nc2c(n1)c1c(non1O)c1c2no[n+]1[O-] here?
Its Potency is inconclusive: 20.6 µM.

With O=P1(Nc2nc3ccc(Cl)cc3s2)COc2ccccc2O1 (stereo not drawn) as the compound, how does the Potency read?
The Potency was inconclusive: 16.4 µM.
